One may read the Papp as the rate of passage across a membrane or cell layer, normalised by area and donor concentration.

Here are results for one molecule from PubChem BioAssay AID1645871.

The conditions of the data set: pampa; pH 5.0; 30.0 min; 50.0 µM.

The molecule `CCN(CC)CCNC(=O)c1c(C)[nH]c(/C=C2\C(=O)Nc3ccc(F)cc32)c1C` yielded an apparent permeability coefficient (Papp) of 53.9 ×10⁻⁶ cm/s.
